Reference: ChEMBL document CHEMBL5352473, “Design, synthesis, biological evaluation and crystal structure determination of dual modulators of carbonic anhydrases and estrogen receptors” (Eur J Med Chem, 2023)

By UniProt entry, the sequences of proteins in these tests, tags left out.
UniProt Q92731, whole entry: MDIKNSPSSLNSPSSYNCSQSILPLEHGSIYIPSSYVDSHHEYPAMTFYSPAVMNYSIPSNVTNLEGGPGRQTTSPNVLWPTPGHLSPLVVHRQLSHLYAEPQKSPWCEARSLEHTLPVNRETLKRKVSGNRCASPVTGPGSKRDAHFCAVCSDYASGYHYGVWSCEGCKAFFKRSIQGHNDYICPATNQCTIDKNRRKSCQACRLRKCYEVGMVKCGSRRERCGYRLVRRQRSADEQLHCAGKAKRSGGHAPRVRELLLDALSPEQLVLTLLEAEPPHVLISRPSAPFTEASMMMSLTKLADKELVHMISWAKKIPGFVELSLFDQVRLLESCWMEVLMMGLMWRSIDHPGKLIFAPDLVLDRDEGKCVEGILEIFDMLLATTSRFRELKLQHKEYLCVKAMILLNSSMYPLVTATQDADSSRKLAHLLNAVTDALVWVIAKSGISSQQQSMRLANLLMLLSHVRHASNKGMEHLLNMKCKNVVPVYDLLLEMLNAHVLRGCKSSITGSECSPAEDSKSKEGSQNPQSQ

Molecular target: Estrogen receptor beta (Homo sapiens) (UniProt Q92731)
Experiment: Partial agonist activity at wild type human ERbeta in HEK-293T cells transfected with 3xERE-driven luciferase reporter plasmid by luciferase reporter gene assay
Assay type: cell-based
Conditions: filed as partial agonist

NS(=O)(=O)c1ccc2c(c1)C1C=CCC1C(c1ccc(O)cc1Cl)N2 (racemic)
Activity: 0.15 mM
